In the library only some 2.8% were active in any assay of this set; here they are far more common.
PglD DTNB: inhibitors of Campylobacter jejuni PglD acetyltransferase | 0.098% of 360,000 active | purified PglD enzyme, DTNB colorimetric CoA detection | inhibition, % at 12.5 µM | AID 602405; in the data active = inhibition above about 16%, passing the limit was not always enough; inconclusive = no clear call, values can overlap the other calls
Statin myotox sup: suppressors of simvastatin-induced myotoxicity in C2C12 myotubes. ATP luminescence, 48 h; scaled: DMSO 0, geranylgeraniol control 100. rescue of ATP level, % at 7.49 µM. 0.78% of 330,000 active. AID 602340;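 active = mean ATP rescue above about 67%, or every replicate alone reaching that limit, limit read from the data, passing the limit was not always enough; inconclusive = no clear call, values can overlap the other calls; inactive = mean under the limit and some replicate under it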;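 also: myotubes were challenged with 10 µM simvastatin during compound exposure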
E-selectin induc: induces E-selectin expression in human endothelial cells; HUVEC E-selectin immunofluorescence imaging; normalized: neutral wells 0, TNF-alpha wells 100; activation, % at 7.58 µM; 0.37% of 260,000 active; P16581;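 active = mean E-selectin-positive cell signal at least 10% of the positive control, reached in at least 60% of replicates, without over 20% cell loss; inconclusive = no rule given, readout overlaps actives, possibly toxicity-flagged; inactive = the rest, including those meeting only one limit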
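Test system – human umbilical vein endothelial cells (HUVEC), E-selectin induction · Input – 3,000 HUVEC seeded per well · Buffer or medium – EGM-2, gelatin · Compound dosing – single-point compound dose · Detection – immunofluorescence imaging · Measure – percent E-selectin-positive cells · Controls – TNF-alpha high, DMSO low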
esBAF inh: inhibitors of esBAF chromatin remodeling in mouse ES cells | reporter increase, % at 12.5 µM | 2% of 350,000 active | Bmi1-luciferase knock-in reporter, 24 h; 100% = twice the neutral-well signal; in the data active = activation above about 40%; inconclusive = no clear call, values can overlap the other calls;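 also: 0% = median of the plate's neutral control wells and 100% = double that signal; a rise in the Bmi1 reporter signal indicates esBAF inhibition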
Yeast UUG start: modulators of yeast start codon fidelity, primary screen, whole organism, S. cerevisiae, single point, plate reader | AID 602363, 2012 | actives 0.13% (n = 350,000) | activity score, % at 18.7 µM | S. cerevisiae UUG-firefly luciferase reporter, luminescence/redox ratio;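 active means replicate mean at a twofold rise or more, about +100% in these data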;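 further: firefly luciferase made from a UUG start codon reports start codon fidelity; reporter light over untreated wells divided by growth signal over untreated wells; some hits fall short of that in this replicate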
PGC1a acetyl inh: modulators of PGC1a acetylation. U2OS PGC1a acetylation, AlphaScreen anti-acetyl-lysine; with virally co-expressed GCN5 acetyltransferase. inhibition, % at 15.6 µM. 0.17% of 350,000 active. AID 651687;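 active = every replicate shows inhibition of at least 40%; inconclusive = mean inhibition at least 40% but some replicate below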;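 also: 0% = neutral control wells and 100% = positive control wells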
* = called active by the depositor; ? = inconclusive; . = not tested or not shown.

Screens by letter: A = PglD DTNB; B = Statin myotox sup; C = E-selectin induc; D = esBAF inh; E = Yeast UUG start; F = PGC1a acetyl inh
#1 O=[N+]([O-])c1ccccc1-c1ccc(C(=S)N2CCCCC2)o1
  A = -2 | B = 12 | C = . | D = ? | E = -22 | F = 2

#2 O=C(c1ccc(COc2ccccc2[N+](=O)[O-])o1)N1CCCCCC1
  A = . | B = 9 | C = . | D = 55* | E = -12 | F = -16

#3 COc1ccc(-c2ccc([C@H]3[C@@H](C#N)N(C(=O)NC4CCCCC4)[C@H]3CO)cc2)cc1
  A = -3 | B = 6 | C = 0 | D = 11 | E = . | F = -7

#4 C[C@@H]1CN([C@H](C)CO)C(=O)c2cc(NC(=O)CCC(F)(F)F)ccc2O[C@@H](C)CCCCO[C@H]1CN(C)S(C)(=O)=O
  A = 1 | B = -22 | C = 0 | D = -6 | E = 13 | F = 7

#5 C[C@@H]1CCCCO[C@H](CN(C)Cc2ccc(C(=O)O)cc2)[C@H](C)CN([C@H](C)CO)C(=O)c2cc(NS(=O)(=O)c3ccc(Cl)cc3)ccc2O1
  A = 1 | B = . | C = 0 | D = -6 | E = 7 | F = -2

#6 CC(C)(CNC(=O)c1ccc(-c2ccccc2Cl)o1)N1CCOCC1
  A = -7 | B = -36 | C = 0 | D = 71* | E = -15 | F = 4

#7 O=C(c1ccc(-c2ccccc2Cl)o1)N1CCCCCCC1
  A = 5 | B = -1 | C = -2 | D = 54* | E = -5 | F = -7

#8 CCCN1C[C@H](C)[C@H](OC)CN(C)C(=O)c2cc(NC(=O)Nc3c(C)noc3C)ccc2OC[C@H]1C
  A = 2 | B = 1 | C = 0 | D = -6 | E = -10 | F = 0

#9 CC(c1ccco1)N(C(=O)Nc1ccc(Cl)cc1)c1ccccn1 (configuration not stated)
  A = -1 | B = 124* | C = . | D = 14 | E = -10 | F = -2

#10 COc1ccc(C(=O)Nc2ccccc2C(=O)NCCCn2ccnc2)cc1
  A = 6 | B = . | C = . | D = 1 | E = -12 | F = -8

#11 O=C(Nc1ccccc1C(=O)NCCCn1ccnc1)c1ccccc1
  A = 9 | B = 122* | C = . | D = 1 | E = -14 | F = -24

#12 CCSc1ccccc1C(=O)NCCCn1ccnc1
  A = 3 | B = 1 | C = . | D = -11 | E = -23 | F = 95*

#13 O=C(NCC1CC1)[C@@H]1[C@@H](CO)[C@@H]2Cn3c(ccc(-c4ccccc4)c3=O)[C@@H]2N1CC1CC1
  A = 4 | B = 11 | C = 0 | D = 1 | E = . | F = 0

#14 COc1ccc(-c2nc(NC(=O)c3ccco3)sc2C)cc1
  A = 2 | B = 11 | C = . | D = 65* | E = -15 | F = -38

#15 Cc1c(Cl)ccc2sc(NC(=O)c3ccco3)nc12
  A = 2 | B = -1 | C = 0 | D = 64* | E = -25 | F = .

#16 CS(=O)(=O)c1ccc2nc(NC(=O)c3ccco3)sc2c1
  A = 1 | B = -25 | C = 0 | D = -6 | E = -26 | F = 3

#17 COc1ccc(-c2nc(NC(=O)Cn3c(=O)oc4ccccc43)sc2C)cc1
  A = -2 | B = . | C = 39* | D = . | E = -9 | F = .

#18 CCCC(=O)Nc1ccc2c(c1)C(=O)N(C)C[C@@H](OC)[C@H](C)CN(Cc1nccs1)[C@H](C)CO2
  A = -1 | B = -5 | C = 0 | D = 2 | E = . | F = 4

#19 Cc1cccc(NC(=O)CSc2ncnc3sc(C)c(C)c23)n1
  A = -5 | B = 0 | C = 0 | D = 0 | E = -3 | F = 7

#20 Cc1sc2ncnc(SCC(=O)c3cccs3)c2c1C
  A = 3 | B = -21 | C = . | D = 60* | E = -13 | F = .

#21 Cc1ccc(S(=O)(=O)Nc2ccc3c(c2)C(=O)N([C@H](C)CO)C[C@@H](C)[C@H](CN(C)Cc2ccc(-c4ccccc4)cc2)O3)cc1
  A = 2 | B = 40 | C = 157* | D = 3 | E = 0 | F = -32

#22 COc1ccc(S(=O)(=O)Nc2ccc3c(c2)C(=O)N([C@@H](C)CO)C[C@@H](C)[C@@H](CN(C)Cc2ccc(C(=O)Nc4ccccc4N)cc2)O3)cc1
  A = 0 | B = . | C = 34* | D = -26 | E = -6 | F = 13

#23 Cc1ccc(S(=O)(=O)Nc2ccc3c(c2)C(=O)N([C@H](C)CO)C[C@H](C)[C@H](CN(C)Cc2ccc(C(=O)Nc4ccccc4N)cc2)O3)cc1
  A = 3 | B = 82* | C = 1 | D = -19 | E = 13 | F = 2

#24 COc1ccc(S(=O)(=O)Nc2ccc3c(c2)C(=O)N([C@H](C)CO)C[C@@H](C)[C@@H](CN(C)Cc2ccc(C(=O)Nc4ccccc4N)cc2)O3)cc1
  A = 3 | B = . | C = 2 | D = -24 | E = -4 | F = 7

#25 CO[C@@H]1CN(C)C(=O)c2cc(NC(C)=O)ccc2OC[C@H](C)N(Cc2cncnc2)C[C@@H]1C
  A = 2 | B = -6 | C = 0 | D = 1 | E = -12 | F = -7

#26 CCC(=O)N1[C@H](CO)[C@H](c2ccc(-c3ccccc3)cc2)[C@H]1CNC(=O)COC
  A = . | B = . | C = 0 | D = . | E = . | F = -5

#27 Cc1ccc(SCC(=O)NC(C)(C)C)cc1
  A = . | B = 7 | C = . | D = 56* | E = . | F = 1

#28 CC(C)C(NC(=O)OCc1ccccc1)C(=O)OCC(=O)N1CCCCC1 (configuration not stated)
  A = 0 | B = -10 | C = . | D = 72* | E = -35 | F = -2

#29 COc1ccc(N2CCN(C(=O)COC(=O)[C@@H](NC(=O)OCc3ccccc3)C(C)C)CC2)cc1
  A = 0 | B = -1 | C = 0 | D = -6 | E = -8 | F = .

#30 CC(=O)c1ccc(OCc2cc(C(=O)N(C)Cc3cc(C)no3)no2)cc1
  A = -4 | B = 11 | C = . | D = 62* | E = -9 | F = 3

#31 Cc1ccc(CN(C)C(=O)c2cc(COc3ccc(F)cc3Cl)on2)o1
  A = 0 | B = 1 | C = . | D = 60* | E = 4 | F = 18

#32 Cc1nonc1CN(C)C(=O)c1cc(COc2ccc(F)cc2Cl)on1
  A = -3 | B = 2 | C = . | D = 7 | E = -14 | F = -1

#33 CCN(Cc1ccncc1)C(=O)c1cc(COc2ccc(F)cc2Cl)on1
  A = -2 | B = 15 | C = 1 | D = 14 | E = -13 | F = 6

#34 CC(=O)c1ccc(OCc2cc(C(=O)N(C)C(C)c3ccon3)no2)cc1 (configuration not stated)
  A = 0 | B = 3 | C = . | D = 3 | E = 7 | F = -25

#35 CCN(Cc1ccncc1)C(=O)c1cc(COc2ccc(OC)cc2Cl)on1
  A = 3 | B = -4 | C = 0 | D = 72* | E = -18 | F = 12

#36 CC(=O)c1ccc(OCc2cc(C(=O)N(C)C(C)c3nccs3)no2)cc1 (configuration not stated)
  A = 1 | B = -25 | C = . | D = 54* | E = -11 | F = -1

#37 COc1ccc2c3c([nH]c2c1)[C@@H](CO)N(Cc1cccc(F)c1)CC31CCN(CC2CC2)CC1
  A = . | B = . | C = 0 | D = . | E = . | F = -4

#38 COc1ccc(OCc2cc(C(=O)N(C)Cc3cc(C)no3)no2)c(Cl)c1
  A = -3 | B = 40 | C = . | D = 48* | E = 5 | F = .

#39 CCc1ccc(CN(C)C(=O)c2cc(COc3ccc(OC)cc3Cl)on2)nc1
  A = 1 | B = 8 | C = 0 | D = 46* | E = -7 | F = .

#40 CCCNC(=O)[C@H]1[C@H](CO)[C@H]2Cn3c(ccc(-c4ccc(F)cc4)c3=O)[C@@H]1N2CC
  A = -3 | B = -11 | C = 0 | D = 2 | E = . | F = 4

Some of the entries so far, as tab-separated lines.
No.	SMILES	PglD DTNB	Statin myotox sup	E-selectin induc	esBAF inh	Yeast UUG start	PGC1a acetyl inh
6	CC(C)(CNC(=O)c1ccc(-c2ccccc2Cl)o1)N1CCOCC1	-7	-36	0	71*	-15	4
37	COc1ccc2c3c([nH]c2c1)[C@@H](CO)N(Cc1cccc(F)c1)CC31CCN(CC2CC2)CC1	.	.	0	.	.	-4
18	CCCC(=O)Nc1ccc2c(c1)C(=O)N(C)C[C@@H](OC)[C@H](C)CN(Cc1nccs1)[C@H](C)CO2	-1	-5	0	2	.	4

Next results
Screens by letter: A = PglD DTNB; B = Statin myotox sup; C = E-selectin induc; D = esBAF inh; E = Yeast UUG start; F = PGC1a acetyl inh
#41 C[C@@H](CO)NC(=O)c1ccc2c3n(nc2c1)-c1ccccc1CO3
  A = 3 | B = -9 | C = 2 | D = -47 | E = -67 | F = 3

#42 CCN(CC)CCCNC(=O)c1ccc2c3n(nc2c1)-c1ccc(Cl)cc1CO3
  A = 0 | B = -3 | C = 0 | D = 37 | E = -7 | F = 2

#43 O=C(c1ccc2c3n(nc2c1)-c1ccccc1CO3)N1CCOCC1
  A = 1 | B = -240 | C = . | D = -75 | E = -43 | F = 4

#44 O=C(NCC1CCCO1)c1ccc2c3n(nc2c1)-c1ccccc1CO3 (configuration not stated)
  A = -2 | B = 4 | C = 1 | D = 70* | E = -12 | F = .

From PubChem BioAssay
